# Results from US11447533B2, “Antimicrobial and anticancer peptides and conjugates and compositions, methods, articles and kits relating thereto” (George Mason Research Foundation, Inc., priority 2018, dated 2022).
# Tests used:
# ESKAPE pathogens = assay: Antimicrobial efficacy against ESKAPE pathogens (all other than P. aeruginosa); format: cell-based; settings: mammalian serum; susceptible and drug-resistant strains
# Experimental: FIG. 8 is a graph showing antimicrobial efficacies of ATRA1-R3W2-HYD (blue), NA-CATH (dark orange) and PMB (green) against selected members of ESKAPE (Enterococcus faecium, Staphylococcus aureus, Klebsiella pneumoniae, Acinetobacter baumannii, Pseudomonas aeruginosa, and Enterobacter) pathogens. Both susceptible and drug-resistant strains were used. All the bacteria, except Pseudomonas aeruginosa, were tested under mammalian serum. P. aeruginosa results were obtained from testing in DPBS. The results are presented as mean of tests in triplicate with error-bars depicting the 95% confidence interval of the mean.
# Antimicrobial Studies. The phosphate buffers used for antimicrobial assays were supplemented with non-nitrogenous energy source, 0.1% (w/v) glucose. […]
# Antimicrobial assays in different phosphate buffers and serum were conducted by adapting, with necessary modifications a fast high-throughput method based on Virtual Colony Count technique and later modified by incorporating the use of resazurin. At first serial dilution of a microbial strain in respective buffer was poured in the wells of 96 well polypropylene microplate and was then added with same volume of 2× MHB II supplemented with 80 μg/mL resazurin and incubated at 35° C. in a Gemini EM Microplate Reader (Molecular Devices) overnight with intermittent shaking. […]
# [1] = tested on: E. coli ML35p outer membrane; assay: Outer membrane disruption (β-lactamase leakage, nitrocefin); format: cell-based, Escherichia coli; settings: DPBS; HCMAB = 100%
# Experimental: Interactions with Bacterial Membranes. Interaction of the peptides with bacterial membranes in different phosphate buffers were evaluated using E. coli ML35p, constructed in our laboratory. At first, competent cells of E. coli ML35 were produced by conventional competent cell preparation method, then transformed with pBR322 plasmid. Transformed colonies were selected after growing on Luria-agar containing 50 μg/mL ampicillin. A single transformed colony was grown in presence of ampicillin first in Luria broth and then in MHBII and stored as 20% glycerol stock at −80° C. […]
# Membrane Disruptions. The outer and the inner membrane disruptions by the peptides were evaluated by incubating bacterial suspension with peptides and then measuring the activity of enzymes leaked out of the cells. […]
# The outer membrane disruption was tested by using the activity of beta-lactamase present in the periplasmic space of E. coli ML35p. Peptides when disrupt the outer membrane enough to cause beta-lactamase to come out, the degree of disruption can be measured by the virtue of the kinetics of the enzyme and using a chromogenic cephalosporin substrate called nitrocefin. β-lactamase mediated hydrolyzed product of nitrocefin has an absorbance αmax=486 nm. […]
compound,measurement,setting,value
"CC[C@H](C)[C@H](NC(=O)[C@@H](NC(=O)[C@H](CCCCN)NC(=O)[C@@H]1CCCN1C(=O)[C@H](CCCCN)NC(=O)[C@H](CCCCN)NC(=O)[C@H](Cc1ccccc1)NC(=O)[C@H](Cc1ccccc1)NC(=O)[C@H](CCCCN)NC(=O)[C@H](CCCCN)NC(=O)[C@H](C)NC(=O)[C@H](CCCNC(=N)N)NC(=O)[C@H](CCCCN)NC(=O)[C@H](CCCCN)NC(=O)[C@@H](NC(=O)[C@H](CO)NC(=O)[C@H](CC(N)=O)NC(=O)[C@H](CCCCN)NC(=O)[C@H](CC(C)C)NC(=O)[C@H](CCCCN)NC(=O)[C@H](CCCCN)NC(=O)[C@H](Cc1ccccc1)NC(=O)[C@H](Cc1ccccc1)NC(=O)[C@H](CCCCN)NC(=O)[C@H](CCCCN)NC(=O)[C@H](Cc1ccccc1)NC(=O)[C@H](CCCNC(=N)N)NC(=O)[C@@H](N)CCCCN)C(C)C)C(C)C)C(=O)NCC(=O)N[C@H](C(=O)N[C@H](C(=O)N[C@@H](Cc1ccccc1)C(=O)N1CCC[C@H]1C(=O)N[C@@H](Cc1ccccc1)C(=O)O)[C@@H](C)O)C(C)C [NA-CATH, reference compound]","antimicrobial effectiveness, in words",ESKAPE pathogens,"highly effective, though in lower degree than PMB"
same,outer membrane disruption (β-lactamase activity) relative to HCMAB,[1],slightly lower degrees of membrane-disruption
